Experimental data reported in patent publication US5270148A, “Processing solution for silver halide color photographic materials and method for processing the materials with the processing solution” (priority 1991, dated 1993).

Assay: oxidation reduction potential of aminopolycarboxylic acid ferric complex salts (bleaching agents)
Format: physicochemical
Details: vs. NHE, pH = 6
Excerpt: Then, practical examples of the aminopolycarboxylic acid ferric complex salt in this invention are illustrated below together with their oxidation reduction potentials, but the bleaching agents for use in this invention are not limited to these compounds.
The oxidation reduction potential of the bleaching agent is defined as the oxidation reduction potential obtained by the method described in Transactions of the Faraday Society, Vol. 55, (1959), pages 1312-1313.

Substance | Oxidation Reduction Potential
Ethylenediaminetetraacetic Acid Ferric Complex Salt [compound 8] | 110 mV
Diethylene Thioether Diaminetetra-acetic Acid Ferric Complex Salt [compound 5] | 230 mV
Trans-1,2-cyclohexanediaminetetra-acetic Acid Ferric Complex Salt [compound 10] | 80 mV
